Rango complex inh = inhibitors of Rango-importin beta complex formation; Q14974; Rango CFP/YFP FRET sensor + importin beta, 45 min; Potency, µM (titrated, usually from 92.2 µM); 0.031% of 340,000 active; AID 540263; calls by dose curve; also: nearly all actives have a fitted effect of over 15% in size
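FRET biosensor Rango (snurportin 1 IBB between N-terminal EYFP and C-terminal Cerulean), 50 nM in PBS/1 mM DTT/0.02% Tween-20/0.1% BSA, preincubated 5 min RT with compound; 0.125 microM importin beta added, 45 min RT, CFP/YFP FRET ratio read.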
PLK1 PBD block = PLK1 (human) polo-box domain binding inhibition; P53350; AID 720504; Potency, µM, hits mostly inhibitors; 2.8% of 360,000 active; Plk1 PBD binding of FITC phosphopeptide, fluorescence polarization; also: series mostly up to about 57 µM; nearly all actives have a fitted effect of over 65% in size
VDR inhibitor = blocks the human vitamin D receptor. VDR-SRC2-3 peptide fluorescence polarization, 2 h. Potency, µM, hits mostly inhibitors. 0.93% of 400,000 active
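After 23 nl compound addition and a short centrifugation, plates sat for 2 hours at ambient temperature; polarization of fluorescence then indicated loss of VDR binding to peptide SRC2-3.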
Rango dissoc inh = prevents RanGTP from dissociating the Rango-importin beta complex. O95149+P62826. Biochemical FRET Rango-importin beta, RanGTP-induced dissociation. Potency, µM (top dose mostly 46.1 µM). 0.071% of 340,000 active. AID 540253; calls by dose curve; also: nearly all actives have a fitted effect of over 45% in size
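FRET read at 45 min, room temperature: inhibitors block the CFP/YFP signal rise when RanGTP (0.6 uM Ran, 2 mM GTP, 0.2 uM RCC1) frees Rango (0.1 uM) from importin beta (0.25 uM). Pre-read after 5 min compound exposure flags interference.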
PI5P4K alpha inh = blocks human PI5P4K alpha kinase activity; PI5P4Kalpha enzyme, ADP-Glo luminescence, 60 min; hits give low values; 1.2% of 330,000 active; P48426; max response, %; active = max response of -50% or lower; inconclusive = between -30% and -50%; inactive = -30% or higher; also: value at the top dose of about 77 µM
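ADP-Glo luminescence end-point read after a 60 min room-temperature kinase reaction of PI5P4Kalpha plus substrate, initiated with ATP at 5 microM final. Buffer: 0.038 M HEPES pH 7.4, EGTA, 0.1% CHAPS, 5% DMSO.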
GCN5L2 inh = inhibitors of human GCN5L2 histone acetyltransferase. Q92830. GCN5L2 HAT assay, ThioGlo1 CoA-SH fluorescence. Potency, µM (highest dose often 58.9 µM), usual class: inhibitors. 0.21% of 390,000 active. AID 504327
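Fluorescence readout, Ex340nm/Em540nm: ThioGlo1 (50uM final) reacts with free CoA thiol released as 20nM GCN5L2 acetylates H3(1-25) peptide (75uM) using acetyl-CoA (70uM). Compound and enzyme sat 15 min beforehand; 20 min room-temperature reaction.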
Numbers stand for hits; - = inactive; ? = inconclusive; . = no result given; ! = not confirmed by another sample. Compounds with a hit are over-represented: about 3.6% of the library has one in this group of screens. Unless noted, calls follow the shape of the dose curve; as a rule, active = well fitted curve in the direction sought with a large enough effect; inconclusive = small, poorly fitted or top-dose-only effect, or another doubt; inactive = no such curve, though single readings can be large; an effect the other way counts as inactive or inconclusive.

SMILES	Rango complex inh	PLK1 PBD block	VDR inhibitor	Rango dissoc inh	PI5P4K alpha inh	GCN5L2 inh
C=CCNC(=O)C(=O)NCC(c1ccc2c(c1)OCO2)N1CCN(c2ccc(F)cc2)CC1 (stereo unspecified)	-	24µM	?	-	-	-
Cc1nc(-c2ccc3c(c2)OCCO3)cs1	-	30µM	-	-	-	-
Cc1cccc(Nc2nc(-c3ccc4c(c3)OCCO4)cs2)c1	-	-	-	-	-	-
O=C(CN1C(=O)C(c2ccccc2)Oc2cccnc21)NCc1ccccc1F (stereo unspecified)	?	7.5µM	?	-	?	-
Cc1cc(C)cc(NC(=O)CCCN2C(=O)C(c3ccccc3)Oc3cccnc32)c1 (stereo unspecified)	?	24µM	-	-	-	-
COc1ccc(CNC(=O)CN2C(=O)C(c3ccccc3)Oc3cccnc32)cc1 (stereo unspecified)	-	-	-	-	-	-
CCCS(=O)(=O)NCCc1sc2nc(-c3ccc(Cl)cc3)nn2c1C	.	.	-	.	.	-
CC(=O)c1cccc(NC(=O)Nc2sc3nc4n(c(=O)c3c2C)CCC(C)CC4)c1 (stereo unspecified)	.	.	-	.	.	-
CSc1nc(-c2ccco2)cc(C(F)(F)F)c1C#N	-	17µM	-	-	-	-
N#Cc1c(C(F)(F)F)cc(-c2ccco2)nc1SCc1ccccn1	37µM	-	-	-	.	.
N#Cc1c(C(F)(F)F)cc(-c2ccco2)nc1SCc1ccncc1	?	-	-	?	-	-
CCOc1ccc(NC(=O)CN2C(C(=O)OC)=C(c3ccccc3)c3cc(Cl)ccc3S2(=O)=O)cc1	.	.	-	.	.	-
O=C1CCCN1CCCNc1ccc2nnc(CCC(=O)N3CCN(c4ccc(F)cc4)CC3)n2n1	-	27µM	-	-	-	-
COc1ccccc1-n1cnnc1SCC(=O)Nc1cc(C(C)(C)C)nn1-c1ccccc1	-	3.4µM	-	-	-	-
Cc1ccc(CNC(=O)c2cc3c(=O)n(Cc4cccnc4)ccc3nc2C)cc1	.	.	-	.	.	-
CCOC(=O)C1(N(CC)CC)Sc2cc(C)ccc2NC1=O (stereo unspecified)	-	-	-	-	-	-
COC(=O)C1=C(C(=O)OC)SC2(S1)C(C(=O)OC)=C(C(=O)OC)SC1=C2c2cc(C)ccc2NC1(C)C	-	3.4µM	?	-	?	-
Cc1ccc(C(=O)Nc2cccnc2)cc1S(=O)(=O)N1CCCC1	-	-	-	-	-	-
Cc1ccc(NC(=O)Cn2ncc(Cl)c(Cl)c2=O)cc1S(=O)(=O)N1CCCCC1	-	-	?	-	-58	-
Cc1ccc(NC(=O)COC(=O)C2CC3C=CC2C3)cc1S(=O)(=O)N1CCCCC1 (stereo unspecified)	-	21µM	-	-	-	-
Cc1ccc(S(=O)(=O)N2CCCCC2)cc1NC(=O)COC(=O)C1CC2C=CC1C2 (stereo unspecified)	?	-	-	-	-	-
Cc1ccc(C(=O)Nc2cccnc2)cc1S(=O)(=O)N1CCCCC1	-	17µM	?	-	-	-
O=C(CNC(=O)c1cccc(F)c1)N/N=C/c1ccc(O)c([N+](=O)[O-])c1	-	-	-	-	-72	-
O=C(CNC(=O)c1ccco1)N/N=C/c1ccc(O)c([N+](=O)[O-])c1	-	-	-	-	-	-
O=C(CNC(=O)c1ccc(F)cc1)N/N=C/c1ccc(O)c([N+](=O)[O-])c1	-	-	-	?	-65	-
SMILES	Rango complex inh	PLK1 PBD block	VDR inhibitor	Rango dissoc inh	PI5P4K alpha inh	GCN5L2 inh
Cc1ccc(C)c(N2CCN(C(=O)C3CCCN(S(=O)(=O)c4ccc5c(c4)oc(=O)n5C)C3)CC2)c1 (stereo unspecified)	.	.	-	.	.	-
CC(=O)Nc1ccc2c(c1)c1ccccc1n2C(C)=O	-	-	?	-	-	-
CC(=O)n1c2ccccc2c2nc(NC(C)C)sc21	-	27µM	?	-	-	-
COc1ccc2c(c1)CCC1C2=NN(/C(C)=C\C(C)=O)C1c1ccc(F)cc1 (stereo unspecified)	?	12µM	?	?	-	-
COc1ccc2c(c1)C1=NN(/C(C)=C/C(C)=O)C(c3ccc(F)cc3)C1CC2 (stereo unspecified)	-	-	?	-	-	-
CCc1sc(NC(=O)COC)nc1-c1ccccc1	-	18µM	-	-	-	-
CCc1sc(NC(C)=O)nc1-c1ccccc1	-	-	-	-	-	-
CC(=O)N(/N=C1\Sc2ccccc2C1=O)c1ccccc1C	?	-	-	8.2µM	-	-
O=C(CSc1ncnc2scc(-c3ccccc3)c12)Nc1ccc(C(=O)O)cc1	-	-	-	-	-85	-
Cn1nnnc1Sc1ncnc2scc(-c3ccccc3)c12	-	-	?	-	-52	-
Cn1nnnc1Sc1ncnc2scc(-c3ccc(Br)cc3)c12	-	.	-	-	.	-
CC(=O)Nc1ccc(Sc2ncnc3scc(-c4ccccc4)c23)cc1	-	6.7µM	-	-	-	-
COc1cc2c(C#N)c(N3CCN(C)CC3)nc(N)c2c(N)n1	.	.	.	.	.	-
COc1cc2c(C#N)c(N3CCCC3)nc(N)c2c(N)n1	?	-	28µM!	?	-	-
O=C(O)CSc1nnc(-c2cccs2)n1-c1ccc(Cl)cc1	-	27µM	?	-	-	-
COc1ccc2c(Sc3ccccc3)c(C(=O)N3CCC(C)CC3)[nH]c2c1	.	.	-	.	.	-
CC(=O)c1ccc(N2Cc3ccccc3/C2=N\C(=O)Nc2ccccc2)cc1	-	-	-	-	-	-
CC(=O)c1cccc(N2Cc3ccccc3C2=NC(=O)CCl)c1	-	13µM	-	-	-70	-
O=C(NCc1ccco1)c1ccccc1Br	-	27µM	?	-	-	-
CCCOc1ccc(C(=O)NCc2ccco2)cc1	-	-	-	-	-	-
CC(C)Oc1ccc(C(=O)NCc2ccco2)cc1	-	27µM	-	-	-	-
Cc1ccccc1CNC(=O)c1oc2c(c1C)-c1nn(Cc3ccc(Cl)cc3)cc1CC2	.	.	-	.	.	-
CCC(=O)NC1CCc2cccc(OC)c2C1 (stereo unspecified)	.	.	-	.	.	-
Cc1ccc(C)c(CSc2nnc3[nH]c(=O)cc(C)n23)c1	.	.	-	.	.	-
O=c1cc2oc3cc(O)c(O)cc3c(-c3ccccc3O)c-2cc1O	-	24µM	?	-	-88	?
CCOc1ccccc1-c1c2cc(O)c(=O)cc-2oc2cc(O)c(O)cc12	?	-	?	?	-55	-
Cc1ccccc1-c1cc(=O)c2c(O)cccc2o1	-	-	-	-	-	-
O=c1cc(-c2ccccc2O)oc2cc(O)ccc12	.	.	-	.	.	-
COc1ccc(CC(=O)NCC2CCCN(Cc3cccc(C(F)(F)F)c3)C2)cc1 (stereo unspecified)	-	27µM	?	?	-	-

Source: PubChem BioAssay
